# Assay results published in patent US6022696A, “Methods of identifying agonists or antagonists of angiotensin IV” (Washington State University Research Foundation, priority 1998, dated 2000).
# The chains behind the UniProt entries cited, without tags or fusion partners. Residues count along the entry.
# UniProt F1N1Q8, 1-1022: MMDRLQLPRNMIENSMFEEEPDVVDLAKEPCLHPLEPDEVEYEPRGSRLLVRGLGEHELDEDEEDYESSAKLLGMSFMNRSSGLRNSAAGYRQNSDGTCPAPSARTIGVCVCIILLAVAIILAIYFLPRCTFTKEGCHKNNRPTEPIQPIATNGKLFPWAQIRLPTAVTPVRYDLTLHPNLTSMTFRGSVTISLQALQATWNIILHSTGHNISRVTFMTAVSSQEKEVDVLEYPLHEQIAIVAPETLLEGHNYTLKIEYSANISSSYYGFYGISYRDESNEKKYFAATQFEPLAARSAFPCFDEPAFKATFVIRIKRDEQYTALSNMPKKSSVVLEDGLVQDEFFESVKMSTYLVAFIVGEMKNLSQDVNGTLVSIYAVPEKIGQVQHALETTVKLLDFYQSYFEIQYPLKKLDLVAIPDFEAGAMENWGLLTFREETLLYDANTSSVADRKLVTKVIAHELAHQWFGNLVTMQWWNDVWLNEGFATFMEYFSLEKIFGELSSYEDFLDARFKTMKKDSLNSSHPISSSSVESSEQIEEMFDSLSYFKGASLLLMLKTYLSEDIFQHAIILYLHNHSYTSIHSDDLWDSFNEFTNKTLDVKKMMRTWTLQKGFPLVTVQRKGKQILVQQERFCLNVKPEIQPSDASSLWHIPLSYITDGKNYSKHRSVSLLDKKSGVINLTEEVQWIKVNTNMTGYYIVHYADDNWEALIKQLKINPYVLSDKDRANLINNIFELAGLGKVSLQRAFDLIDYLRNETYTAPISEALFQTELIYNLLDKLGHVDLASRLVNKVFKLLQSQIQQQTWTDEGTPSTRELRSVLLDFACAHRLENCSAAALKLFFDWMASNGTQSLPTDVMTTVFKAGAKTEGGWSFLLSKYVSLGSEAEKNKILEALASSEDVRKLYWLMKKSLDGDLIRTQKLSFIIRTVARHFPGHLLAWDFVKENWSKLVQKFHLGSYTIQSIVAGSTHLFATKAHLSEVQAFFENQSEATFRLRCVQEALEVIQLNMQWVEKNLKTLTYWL
# Molecular target: AT4 receptor (Bos taurus, UniProt F1N1Q8)
# Assay: 125I-AIV binding and competition, solubilized bovine adrenal cortical receptor
# Details: read-out: Ki, competition of 125I-AIV binding
row,Compound,Ki [nM]
1,CC[C@H](C)[C@H](NC(=O)[C@H](Cc1ccc(O)cc1)NC(=O)[C@@H](N)C(C)C)C(=O)NCC(=O)N1CCC[C@H]1C(=O)N[C@@H](Cc1ccccc1)C(=O)O,0.698
2,CC[C@H](C)[C@H](NC(=O)[C@H](Cc1ccc(O)cc1)NC(=O)[C@@H](N)C(C)C)C(=O)N[C@@H](Cc1c[nH]cn1)C(=O)NCC(=O)N[C@@H](Cc1ccccc1)C(=O)O,0.21
3,CC[C@H](C)[C@H](NC(=O)[C@H](Cc1ccc(O)cc1)NC(=O)[C@@H](N)C(C)C)C(=O)N[C@@H](Cc1c[nH]cn1)C(=O)N1CCC[C@H]1C(=O)NCC(=O)O,7.16
4,CC[C@H](C)[C@H](NC(=O)[C@H](Cc1ccc(O)cc1)NC(=O)CN)C(=O)N[C@@H](Cc1c[nH]cn1)C(=O)N1CCC[C@H]1C(=O)N[C@@H](Cc1ccccc1)C(=O)O,168
5,CC(C)[C@H](N)C(=O)N[C@@H](Cc1ccc(O)cc1)C(=O)NCC(=O)N[C@@H](Cc1c[nH]cn1)C(=O)N1CCC[C@H]1C(=O)N[C@@H](Cc1ccccc1)C(=O)O,116
6,CC[C@H](C)[C@H](NC(=O)CNC(=O)[C@@H](N)C(C)C)C(=O)N[C@@H](Cc1c[nH]cn1)C(=O)N1CCC[C@H]1C(=O)N[C@@H](Cc1ccccc1)C(=O)O,1000
